# Values quoted from earlier work, collected in patent US8969323B2, “Priming solutions for cardiopulmonary bypass” (XVIVO Perfusion AB, priority 2010, dated 2015).
# Conditions: Griffel et al., 1992; cited from earlier work
substance,measurement,value
"25% albumin solution: hyperoncotic 25% albumin solution, cited from Griffel et al., 1992",increase of the volume in the vasculature relative to the given volume,almost five times the given volume
